Measurements reported in patent US9085584B2, “Substituted pyrido[3,2-E][1,2,4]-triazolo[4,3-A]pyrazines for the treatment of central nervous system disorders” (Boehringer Ingelheim International GmbH, priority 2012, dated 2015).

Sequences of proteins named here, by UniProt entry; tags and fusion partners are left off.
UniProt Q9Y233, whole entry, species assumed: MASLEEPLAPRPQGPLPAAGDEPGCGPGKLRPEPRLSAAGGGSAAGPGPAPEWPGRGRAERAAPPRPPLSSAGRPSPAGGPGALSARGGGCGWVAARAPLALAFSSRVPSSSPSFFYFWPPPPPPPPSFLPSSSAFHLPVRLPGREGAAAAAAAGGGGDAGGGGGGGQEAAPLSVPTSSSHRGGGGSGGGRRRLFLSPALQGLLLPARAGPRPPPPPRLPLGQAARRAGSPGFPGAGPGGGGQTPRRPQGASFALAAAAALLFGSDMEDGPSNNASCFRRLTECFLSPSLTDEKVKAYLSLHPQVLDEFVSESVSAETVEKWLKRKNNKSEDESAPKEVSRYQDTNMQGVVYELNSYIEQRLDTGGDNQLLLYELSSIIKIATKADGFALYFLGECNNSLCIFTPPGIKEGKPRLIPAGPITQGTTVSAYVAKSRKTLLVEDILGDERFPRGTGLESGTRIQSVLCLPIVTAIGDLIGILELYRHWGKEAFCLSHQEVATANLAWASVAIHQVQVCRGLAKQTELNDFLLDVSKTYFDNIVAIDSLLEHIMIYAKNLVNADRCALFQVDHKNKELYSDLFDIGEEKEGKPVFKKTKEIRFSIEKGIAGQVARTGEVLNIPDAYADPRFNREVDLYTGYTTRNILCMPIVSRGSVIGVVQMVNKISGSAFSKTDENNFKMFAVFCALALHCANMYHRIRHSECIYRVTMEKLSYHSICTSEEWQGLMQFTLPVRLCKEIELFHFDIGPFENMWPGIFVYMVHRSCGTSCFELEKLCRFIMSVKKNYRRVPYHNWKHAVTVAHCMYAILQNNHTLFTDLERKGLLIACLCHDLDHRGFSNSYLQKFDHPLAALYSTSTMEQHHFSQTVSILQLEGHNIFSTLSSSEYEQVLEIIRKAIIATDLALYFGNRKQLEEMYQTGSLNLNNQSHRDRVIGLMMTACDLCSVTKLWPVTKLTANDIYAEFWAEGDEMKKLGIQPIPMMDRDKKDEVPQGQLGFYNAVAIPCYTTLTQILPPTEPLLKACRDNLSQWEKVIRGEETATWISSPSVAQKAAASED
UniProt O00408, whole entry, species assumed: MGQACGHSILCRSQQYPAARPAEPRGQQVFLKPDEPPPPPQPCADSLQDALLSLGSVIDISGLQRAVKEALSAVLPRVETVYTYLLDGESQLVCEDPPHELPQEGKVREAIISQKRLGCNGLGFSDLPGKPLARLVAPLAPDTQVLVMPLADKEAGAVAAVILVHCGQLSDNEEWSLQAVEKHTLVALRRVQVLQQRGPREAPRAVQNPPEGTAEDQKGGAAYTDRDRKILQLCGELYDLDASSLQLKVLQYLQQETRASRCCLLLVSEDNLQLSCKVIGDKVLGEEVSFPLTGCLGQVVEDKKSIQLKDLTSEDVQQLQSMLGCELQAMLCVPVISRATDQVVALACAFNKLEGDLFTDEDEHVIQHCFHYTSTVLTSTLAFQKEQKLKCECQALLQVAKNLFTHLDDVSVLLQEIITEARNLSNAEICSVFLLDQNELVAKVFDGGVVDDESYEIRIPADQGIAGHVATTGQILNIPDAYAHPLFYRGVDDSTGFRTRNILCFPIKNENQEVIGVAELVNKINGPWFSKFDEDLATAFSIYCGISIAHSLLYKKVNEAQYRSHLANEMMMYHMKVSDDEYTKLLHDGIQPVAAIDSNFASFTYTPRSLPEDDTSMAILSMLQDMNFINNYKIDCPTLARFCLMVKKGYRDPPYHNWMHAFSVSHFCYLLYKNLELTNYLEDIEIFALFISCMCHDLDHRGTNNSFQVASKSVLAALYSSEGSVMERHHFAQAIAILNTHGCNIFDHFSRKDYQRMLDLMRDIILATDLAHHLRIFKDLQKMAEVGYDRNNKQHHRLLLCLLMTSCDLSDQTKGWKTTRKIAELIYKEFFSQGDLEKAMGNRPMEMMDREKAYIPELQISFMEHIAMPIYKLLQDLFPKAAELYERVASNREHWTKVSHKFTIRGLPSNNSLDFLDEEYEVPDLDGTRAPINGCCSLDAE

Key:
Format in all cases: biochemical
PDE 10A = PDE 10A (Homo sapiens (Human), UniProt Q9Y233); experiment: Radioactive PDE10 assay ([3H]cAMP SPA)
Protocol: b) Radioactive PDE10 Assay Protocol:
In detail the protocol is as follows:
Into a 384 well plate (OptiPlate, white), the following components are pipetted (either manually or using automated pipetting devices): • 20 μl test-compound solution (test compound diluted in assay buffer at twofold the desired concentration) • +10 μl PDE 10A preparation (enzyme diluted in assay buffer to a concentration of 0.3 ng/μl protein) • +10 μl cAMP tracer (diluted in assay buffer to a concentration of 80 nM cAMP, specific activity ˜4 mCi/I)
After addition of all 3 components the plates are shortly spun and incubated at room temperature for 60 min. The reaction is stopped by the addition of 20 μl Yttrium SPA PDE Beads containing 18 mM zinc sulphate in water
PDE 10A protein is expressed upon baculovirus infection in SF9 cells.

PDE10 = PDE10 (Homo sapiens (Human), UniProt Q9Y233); experiment: PDE10 assay with fluorescent substrate (IMAP, fluorescence polarization)
PDE 2A = PDE 2A (Homo sapiens (Human), UniProt O00408); experiment: PDE 2A assay with fluorescent substrate (IMAP, fluorescence polarization); details: read-out: PDE2 IC50

SMILES	IC50 (PDE 10A)	also measured
Cc1ccc2nc(C)c3nnc(-c4cc(OCCO)ccc4Cl)n3c2n1 [Example 28]	> 10 µM	–
Cc1nc2ccc(C(F)(F)F)nc2n2c(-c3cc(C4(O)CCOCC4)ccc3F)nnc12 [Example 96a]	–	IC50 (PDE10): 10 µM
Cc1nc2ccc(C3CC3)nc2n2c(-c3cc(OC4COCC4O)ccc3Cl)nnc12 (racemic) [Example 56]	–	IC50 (PDE 2A): 0.002 µM
Cc1nc2cccnc2n2c(-c3cc(OC4CCOC4)ccc3Cl)nnc12 (stereo not shown) [Example 22]	> 5 µM	–
